Values quoted from earlier work as cited in patent US10201528B2, “Method of treating multiple sclerosis” (Assistance Publique Hopitaux De Paris, priority 2012, dated 2019).

Tested on: multiple sclerosis
Conditions: attacks less numerous and less severe, improvement of lesions visible by MRI; cited from earlier work

B1: Interferon beta: interferon treatment for remitting MS (protein, UniProt P01574 22-187, looked up)
Interferon beta: MSYNLLGFLQRSSNFQCQKLLWQLNGRLEYCLKDRMNFDIPEEIKQLQQFQKEDAALTIYEMLQNIFAIFRQDSSSTGWNETIVENLLANVYHQINHLKTVLEEKLEKEDFTRGKLMSSLHLKRYYGRILHYLKAKEYSHCAWTIVRVEILRNFYFINRLTGYLRN
efficacy in multiple sclerosis: proven to be effective
